Measured values: PMC6663879, “Biochemical and structural investigations clarify the substrate selectivity of the 2-oxoglutarate oxygenase JMJD6” (The Journal of Biological Chemistry, 2019)

Columns and labels:
JMJD6^Δ363–403 [1] = molecular target: T1, JMJD6^Δ363–403 (Homo sapiens, UniProt Q6NYC1); assay: Standard MS-based demethylation assay (MALDI-TOF, LC-MS/MS); type: biochemical; design: two more variants (aa 1–362, JMJD6^Δ363–403, and aa 1–343, JMJD6^Δ344–403); His6 (N); made in house; host or cells: Escherichia coli Rosetta2(DE3); conditions: JMJD6^Δ363–403, 37 °C, HEPES-KOH pH 8.0, MALDI-TOF MS / LC-MS/MS
Experimental: Reaction samples were thereafter analyzed by MALDI-TOF or LC-MS/MS.
Peptides were “trapped” on an in-house packed guard column (75-μm inner diameter × 20 mm, Acclaim PepMap® C18, 3 μm, 100 Å) using solvent A (0.1% (v/v) aqueous formic acid) at a pressure of 140 bar. Peptides were separated on an EASY-Spray Acclaim PepMap® analytical column (75 μm inner diameter × 15 mm, rapid separation liquid chromatography C18, 3 μm, 100 Å) using a linear gradient (length, 100 min; 3–60% solvent B (0.1% formic acid in acetonitrile), flow rate, 300 nl/min). The separated peptides were electro-sprayed directly into the spectrometer operating in a data-dependent mode using a collision-induced dissociation/electron transfer dissociation (CID/ETD)-based method. Full scan MS spectra (scan range 150–2000 m/z, resolution 30,000, AGC target 1 × 10^6, maximum injection time 250 ms) and subsequent CID MS/MS spectra (AGC target 3 × 10^4, maximum injection time 500 ms) of the 10 most intense peaks were acquired in the Orbitrap. CID fragmentation was performed at 35% of the normalized collision energy, and the signal intensity threshold was kept at 500 counts. ETD spectra (AGC cation target 5 × 10^4, AGC anion target 2 × 10^5, and cation maximum injection time 100 ms) were acquired in the ion trap. PEAKS® 8.0 (Bioinformatics Solutions, Inc., Waterloo, Canada) was used to analyze raw data. […]

JMJD6^Δ363–403 [2] = molecular target: T1, JMJD6^Δ363–403; assay: Standard MS-based hydroxylation assay (MALDI-TOF MS) of substrate peptides; type: biochemical; design: two more variants (aa 1–362, JMJD6^Δ363–403, and aa 1–343, JMJD6^Δ344–403); His6 (N); made in house; host or cells: Escherichia coli Rosetta2(DE3); conditions: JMJD6^Δ363–403, standard assay conditions, MALDI-TOF MS / LC-MS/MS

In the case of “H3K9me1_1–17: histone peptide monomethylated at Lys^9”, the “JMJD6-catalyzed demethylation (−14 or −28 Da mass shift), result in words” value (JMJD6^Δ363–403 [1]) is reported as “not demethylation” and the “JMJD6-catalyzed hydroxylation (+16-Da mass shift), result in words” value (JMJD6^Δ363–403 [2]) is reported as “a +16-Da mass shift was observed”.
